In patent publication US8916579B2, “5-fluoropyrimidinone derivatives” (Dow AgroSciences, LLC., priority 2009, dated 2014):

Test system: Mycosphaerella graminicola; anamorph: Septoria tritici; Bayer code SEPTTR
Experiment: Fungicidal activity: leaf blotch of wheat, greenhouse wheat plants (variety Yuma), percent disease control
Type: in vivo
Settings: Zymoseptoria tritici
Method: Evaluation of Fungicidal Activity: Leaf Blotch of Wheat (Mycosphaerella graminicola; anamorph: Septoria tritici; Bayer code SEPTTR)
Wheat plants (variety Yuma) were grown from seed in a greenhouse in 50% mineral soil/50% soil-less Metro mix until the first leaf was fully emerged, with 7-10 seedlings per pot. These plants were inoculated with an aqueous spore suspension of Septoria tritici either prior to or after fungicide treatments. After inoculation the plants were kept in 100% relative humidity (one day in a dark dew chamber followed by two to three days in a lighted dew chamber) to permit spores to germinate and infect the leaf. The plants were then transferred to a greenhouse for disease to develop.
The effectiveness of the test compounds in controlling disease was determined by assessing the severity of disease on treated plants, then converting the severity to percent control based on the level of disease on untreated, inoculated plants. • In each case of Table II the rating scale is as follows: […]

O=C(Nc1nc(=O)n(CC2CCCO2)cc1F)c1cccs1 (centres unmarked) [Compound 94, N-(5-fluoro-2-oxo-1-((tetrahydrofuran-2-yl)methyl)-1,2-dihydropyrimidin-4-yl)thiophene-2-carboxamide]
pest or weed control at 100 ppm (24 h, read-out: SEPTTR 100 PPM 1DP (% Disease Control rating)): 0 to 25%
pest or weed control at 100 ppm (72 h, read-out: SEPTTR 100 PPM 3DC (% Disease Control rating)): 0 to 25%

Where two headings read alike, the source gives them in different places.
